The text below walks through data of patent US20230151069A1, “Cyclic Peptides” (LIFEARC, priority 2020, published 2023).

Assay [1] has as its target TAP01 (MoG1K) antibody. Nature of the assay: Thioacetal bridged cyclic peptide binding ELISA with TAP01 antibody. The arrangement: species or system mouse. Here is the method: (§1) • 1. […] Incubate at 4° C. overnight • 3. Wash the plate (NUNC 384 program) • 4. […] Incubate at RT for 1 hour • 6. Wash the plate (NUNC 384 program) • 7. […] Incubate at 4° C. overnight • 9. Wash the plate (NUNC 384 program) • 10. […] Transfer 30 μL/well onto the assay plate • 12. Incubate at 37° C. for 1 hour • 13. Wash the plate (NUNC 384 program) • 14. […] Incubate at 37° C. for 1 hour 16. Wash the plate (NUNC 384 program) 17. […] Incubate at RT for 10 min in the dark 19.
The 1-14 thioacetal bridged cyclic peptide assessed in the above experiments has cysteine residues at positions 3 and 12 for the thioacetal bridge to constrain the peptide. In order to assess the role positioning the cysteine residues at positions 3 and 12 has for binding of the TAP01 antibody, additional peptides were generated with cysteine residues at different positions within the peptide sequence (Table 4).
(§2) Binding of the TAP01 antibody has been assessed to these thioacetal bridged cyclic peptide variants by ELISA (FIGS. 20-22 and Table 5). Binding to comparators antibodies was also assessed.
(§3) Binding of the TAP01 antibody has been assessed to these thioacetal bridged cyclic peptide variants and to cyclic peptide 3, 12, cyclic peptide 2, 10, cyclic peptide 2, 12, and cyclic peptide 2, 13 by ELISA (FIG. 25, Table 7). Binding to comparator antibodies was also assessed (FIG. 26).

Assay [2] relates to Bapineuzumab. Briefly: Cyclic peptide binding ELISA with comparator antibody Bapineuzumab. Here is the method: as §1, §2, §3
(In an ELISA, binding on a coated surface is turned into a signal by an enzyme label.)

In assay [3] the test system is TAP01 antibody. Briefly: Proline mutated peptide binding to TAP01 antibody using Biacore T200. The arrangement: species or system mouse. The settings on record: Biacore T200, FIG. 23. From the text: To determine the mechanism of action of the amyloid peptides to the TAP01 antibody, five peptides whereby proline residues substituted the actual amino acids found in the peptide (Table 8) were generated and binding of these peptides to the TAP01 antibody was investigated (FIG. 23).
For orientation: SPR reads the build-up and loss of mass on a sensor chip optically.

[4] abbreviates: TAP01 (MoG1K) binding to thioacetal bridged cyclic peptide variants, Table 5, read-out: EC50.
Where [5] appears, read: TAP01 (MoG1K), FIG. 25, unit inferred, read-out: calculated EC50 value.
Where [6] appears, read: TAP01 (MoG1K) binding to thioacetal bridged cyclic peptide variants, Table 7, read-out: EC50.

Read-outs that look alike come from different tables or passages of the source.

By EC50 is commonly meant the midpoint of the concentration-response curve. Consider `C[C@H](NC(=O)[C@@H](N)CC(=O)O)C(=O)N[C@H]1CSCSC[C@@H](C(=O)N[C@@H](Cc2c[nH]cn2)C(=O)N[C@@H](Cc2c[nH]cn2)C(=O)O)NC(=O)[C@H](CCC(=O)O)NC(=O)[C@H](Cc2ccc(O)cc2)NC(=O)CNC(=O)[C@H](CO)NC(=O)[C@H](CC(=O)O)NC(=O)[C@H](Cc2c[nH]cn2)NC(=O)[C@H](CCCNC(=N)N)NC(=O)[C@H](Cc2ccccc2)NC1=O` [Peptide 3, 12], for which the EC50 in assay [1] (setting [4]) turned out to be 13.3 nM. Also, the “binding to comparator antibody Bapineuzumab” value in assay [2] (FIGS. 7, 22, 26, 34) is given as “No binding”.

For the molecule PAEFRHDSGYEVHH (Residue 1 (D to P)), in assay [3], the “binding to TAP01 antibody” value is on record as “bind in a dose dependant manner”.

On to DACFRHDSGYEVCH-Biotin [Peptide 3, 13], for which the “binding to comparator antibody Bapineuzumab” value in assay [2] (FIGS. 7, 22, 26, 34) was “no binding”.

`CC(C)[C@@H]1NC(=O)[C@H](CCC(=O)O)NC(=O)[C@H](Cc2ccc(O)cc2)NC(=O)CNC(=O)[C@H](CO)NC(=O)[C@H](CC(=O)O)NC(=O)[C@H](Cc2c[nH]cn2)NC(=O)[C@H](CCCNC(=N)N)NC(=O)[C@H](Cc2ccccc2)NC(=O)[C@H](CCC(=O)O)NC(=O)[C@@H](NC(=O)[C@@H](N)CC(=O)O)CSCSC[C@@H](C(=O)N[C@@H](Cc2c[nH]cn2)C(=O)O)NC1=O` [Peptide 2, 13]: the EC50 in assay [1] (setting [4]) was 1.56 nM. Moreover, the “binding to comparator antibody Bapineuzumab” value is “able to bind” in assay [2] (FIGS. 7, 22, 26, 34) and “Binding to the comparator antibody Bapineuzumab was seen” in assay [2] (FIGS. 7, 22, 26, 34, listed as cyclic peptide 2, 13).

As to `CC(C)[C@H](NC(=O)[C@@H]1CSCSC[C@H](NC(=O)[C@@H](N)CC(=O)O)C(=O)N[C@@H](CCC(=O)O)C(=O)N[C@@H](Cc2ccccc2)C(=O)N[C@@H](CCCNC(=N)N)C(=O)N[C@@H](Cc2c[nH]cn2)C(=O)N[C@@H](CC(=O)O)C(=O)N[C@@H](CO)C(=O)NCC(=O)N[C@@H](Cc2ccc(O)cc2)C(=O)N1)C(=O)N[C@@H](Cc1c[nH]cn1)C(=O)N[C@@H](Cc1c[nH]cn1)C(=O)O` [2, 11], the concentration giving a half-maximal response (EC50) in assay [1] (setting [4]) turned out to be 261 nM.

Regarding DPEFRHDSGYEVHH (Residue 2 (A to P)), the “binding to TAP01 antibody” value in assay [3] is recorded as “no binding observed”.

For the molecule `CC(C)[C@H](NC(=O)[C@@H]1CSCSC[C@H](NC(=O)[C@H](C)NC(=O)[C@@H](N)CC(=O)O)C(=O)N[C@@H](Cc2ccccc2)C(=O)N[C@@H](CCCNC(=N)N)C(=O)N[C@@H](Cc2c[nH]cn2)C(=O)N[C@@H](CC(=O)O)C(=O)N[C@@H](CO)C(=O)NCC(=O)N[C@@H](Cc2ccc(O)cc2)C(=O)N1)C(=O)N[C@@H](Cc1c[nH]cn1)C(=O)N[C@@H](Cc1c[nH]cn1)C(=O)O` [3, 11], the EC50 in assay [1] (setting [4]) turned out to be 79.7 nM.

Take `N=C(N)NCCC[C@@H]1NC(=O)[C@H](Cc2ccccc2)NC(=O)[C@H](CCC(=O)O)NC(=O)[C@@H](NC(=O)[C@@H](N)CC(=O)O)CSCSC[C@@H](C(=O)N[C@@H](Cc2c[nH]cn2)C(=O)N[C@@H](Cc2c[nH]cn2)C(=O)O)NC(=O)[C@H](CCC(=O)O)NC(=O)[C@H](Cc2ccc(O)cc2)NC(=O)CNC(=O)[C@H](CO)NC(=O)[C@H](CC(=O)O)NC(=O)[C@H](Cc2c[nH]cn2)NC1=O` [Peptide 2, 12]: the EC50 in assay [1] (setting [4]) worked out at 0.24 nM. Also, the “binding to comparator antibody Bapineuzumab” value in assay [2] (FIGS. 7, 22, 26, 34) is given as “able to bind”; in assay [2] (FIGS. 7, 22, 26, 34, listed as cyclic peptide 2, 12), “Binding to the comparator antibody Bapineuzumab was seen”.

As for `C[C@@H]1NC(=O)[C@@H](N)CSCSC[C@@H](C(=O)N[C@@H](Cc2c[nH]cn2)C(=O)N[C@@H](Cc2c[nH]cn2)C(=O)O)NC(=O)[C@H](CCC(=O)O)NC(=O)[C@H](Cc2ccc(O)cc2)NC(=O)CNC(=O)[C@H](CO)NC(=O)[C@H](CC(=O)O)NC(=O)[C@H](Cc2c[nH]cn2)NC(=O)[C@H](CCCNC(=N)N)NC(=O)[C@H](Cc2ccccc2)NC(=O)[C@H](CCC(=O)O)NC1=O` [Peptide 1, 12], the EC50 in assay [1] (setting [5]) was 9.5 nM. For the same molecule, in assay [2] (FIGS. 7, 22, 26, 34), the “binding to comparator antibody Bapineuzumab” value was “Binding to the comparator antibody Bapineuzumab was seen”.

On to `C[C@@H]1NC(=O)[C@@H](N)CSCSC[C@@H](C(=O)N[C@@H](Cc2c[nH]cn2)C(=O)N[C@@H](Cc2c[nH]cn2)C(=O)O)NC(=O)[C@H](CCC(=O)O)NC(=O)[C@H](Cc2ccc(O)cc2)NC(=O)CNC(=O)[C@H](CO)NC(=O)[C@H](CC(=O)O)NC(=O)[C@H](Cc2c[nH]cn2)NC(=O)[C@H](CCCNC(=N)N)NC(=O)[C@H](Cc2ccccc2)NC(=O)[C@H](CCC(=O)O)NC1=O` [1, 12], for which the EC50 in assay [1] (setting [6]) came out at 9.5 nM.

As to `CC(C)[C@@H]1NC(=O)[C@H](CCC(=O)O)NC(=O)[C@H](Cc2ccc(O)cc2)NC(=O)CNC(=O)[C@H](CO)NC(=O)[C@H](CC(=O)O)NC(=O)[C@H](Cc2c[nH]cn2)NC(=O)[C@H](CCCNC(=N)N)NC(=O)[C@H](Cc2ccccc2)NC(=O)[C@H](CCC(=O)O)NC(=O)[C@H](C)NC(=O)[C@@H](N)CSCSC[C@@H](C(=O)N[C@@H](Cc2c[nH]cn2)C(=O)O)NC1=O` [1, 13], the EC50 in assay [1] (setting [6]) was determined as 3.5 nM.

Regarding `CC(C)[C@H](NC(=O)[C@@H]1CSCSC[C@H](N)C(=O)N[C@@H](C)C(=O)N[C@@H](CCC(=O)O)C(=O)N[C@@H](Cc2ccccc2)C(=O)N[C@@H](CCCNC(=N)N)C(=O)N[C@@H](Cc2c[nH]cn2)C(=O)N[C@@H](CC(=O)O)C(=O)N[C@@H](CO)C(=O)NCC(=O)N[C@@H](Cc2ccc(O)cc2)C(=O)N1)C(=O)N[C@@H](Cc1c[nH]cn1)C(=O)N[C@@H](Cc1c[nH]cn1)C(=O)O` [1, 11], the concentration giving a half-maximal response (EC50) in assay [1] (setting [6]) worked out at 111 nM.

As for `CC(C)[C@@H]1NC(=O)[C@H](CCC(=O)O)NC(=O)[C@H](Cc2ccc(O)cc2)NC(=O)CNC(=O)[C@H](CO)NC(=O)[C@H](CC(=O)O)NC(=O)[C@H](Cc2c[nH]cn2)NC(=O)[C@H](CCCNC(=N)N)NC(=O)[C@H](Cc2ccccc2)NC(=O)[C@H](CCC(=O)O)NC(=O)[C@H](C)NC(=O)[C@@H](N)CSCSC[C@@H](C(=O)N[C@@H](Cc2c[nH]cn2)C(=O)O)NC1=O` [Peptide 1, 13], in assay [1] (setting [5]), the EC50 is 3.5 nM. Moreover, in assay [2] (FIGS. 7, 22, 26, 34), the “binding to comparator antibody Bapineuzumab” value was “Binding to the comparator antibody Bapineuzumab was seen”.

Take `CC(C)[C@H](NC(=O)[C@@H]1CSCSC[C@H](N)C(=O)N[C@@H](C)C(=O)N[C@@H](CCC(=O)O)C(=O)N[C@@H](Cc2ccccc2)C(=O)N[C@@H](CCCNC(=N)N)C(=O)N[C@@H](Cc2c[nH]cn2)C(=O)N[C@@H](CC(=O)O)C(=O)N[C@@H](CO)C(=O)NCC(=O)N[C@@H](Cc2ccc(O)cc2)C(=O)N1)C(=O)N[C@@H](Cc1c[nH]cn1)C(=O)N[C@@H](Cc1c[nH]cn1)C(=O)O` [Peptide 1, 11]: the half-maximal effective concentration (EC50) in assay [1] (setting [5]) was 111 nM. For the same molecule, in assay [2] (FIGS. 7, 22, 26, 34), the “binding to comparator antibody Bapineuzumab” value was “Binding to the comparator antibody Bapineuzumab was seen”.

Take `CC(C)[C@@H]1NC(=O)[C@H](CCC(=O)O)NC(=O)[C@H](Cc2ccc(O)cc2)NC(=O)CNC(=O)[C@H](CO)NC(=O)[C@H](CC(=O)O)NC(=O)[C@H](Cc2c[nH]cn2)NC(=O)[C@H](CCCNC(=N)N)NC(=O)[C@H](Cc2ccccc2)NC(=O)[C@@H](NC(=O)[C@H](C)NC(=O)[C@@H](N)CC(=O)O)CSCSC[C@@H](C(=O)N[C@@H](Cc2c[nH]cn2)C(=O)O)NC1=O` [3, 13]: the EC50 in assay [1] (setting [6]) was determined as 5.41 nM.
